Binding of CDR-mutated scFvs to a peptide of the spike HR2 region

Data: MIT Lincoln Laboratory AlphaSeq set, Engelhart et al. 2022, doi:10.1038/s41597-022-01779-4, as distributed in FLAb.

Target: peptide PDVDLGDISGINAS, taken from heptad repeat 2 (HR2) of SARS-CoV-2 spike.

Ab-14 is the parent antibody, in scFv form: VH, then three GGGGS repeats, then VL. The light chain is unchanged in all variants.
VH: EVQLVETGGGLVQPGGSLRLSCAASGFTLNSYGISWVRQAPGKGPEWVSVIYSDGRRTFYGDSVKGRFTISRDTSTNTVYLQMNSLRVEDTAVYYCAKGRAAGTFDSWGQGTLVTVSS
VL: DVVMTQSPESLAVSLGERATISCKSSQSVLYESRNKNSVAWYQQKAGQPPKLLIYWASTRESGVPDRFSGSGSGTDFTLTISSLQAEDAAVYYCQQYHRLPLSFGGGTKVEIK

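The starting antibody came from a phage panning campaign against this peptide. Variants in AAYL49 differ from the parent at up to three CDR positions; double and triple changes were sampled at random. The assay is AlphaSeq: two haploid yeast populations carry antibody and antigen on their surface. Mating (16 h, 30 °C) was followed by selection of diploids and sequencing of their barcodes. Scores were corrected for input abundance and mapped to Kd with protein pairs of known affinity run in the same pool. Mating was done three times.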

Substitutions are numbered in sequence along the VH above, starting at 1 (not Kabat). Every variant below is changed at F27 of the VH (sequential numbering). Each Kd is an estimate from the mating assay, the geometric mean of the replicates in which the pair was seen; lower is stronger. "nd" means that the variant was in the library but no mating with the target was seen in any replicate; the authors take this as a sign of poor binding, and no number exists. For reference, the parent read 4.4 nM as the reference entry and 13 µM (one replicate of three) as a member of this library. Empty control strains, which show no peptide, gave a signal in 15% of pairings with library AAYL49; the median was 11 µM and 95% of these signals were weaker than 680 nM. No background was subtracted.

- F27K N30P G61R = nd (0 of 3 replicates)
- F27W S31K D54N = nd (0 of 3 replicates)
- F27H N30I F59T = nd (0 of 3 replicates)
- F27M Y52F T104G = 980 nM (3 of 3 replicates)
- F27K I51P S107Y = 3.9 µM (1 of 3 replicates)
- F27A F105C S107L = nd (0 of 3 replicates)
- F27N F59N G103M = 39 µM (2 of 3 replicates)
- F27E G61W K65A = 73 µM (2 of 3 replicates)
- F27Y Y52A = nd (0 of 3 replicates)
- F27K R57T S63C = nd (0 of 3 replicates)
- F27N V50F K65T = nd (0 of 3 replicates)
- F27E Y60S K65Q = nd (0 of 3 replicates)
- F27H I51M Y60G = nd (0 of 3 replicates)
- F27M G55H F105M = 760 nM (1 of 3 replicates)
- F27P T28G G33Y = nd (0 of 3 replicates)
- F27D V50W G103T = 19 µM (1 of 3 replicates)
- F27Q D54G A102C = 13 µM (1 of 3 replicates)
- F27V T58P A102S = nd (0 of 3 replicates)
- F27R T104Q F105D = nd (0 of 3 replicates)
- F27Q S53F = 270 nM (3 of 3 replicates)
- F27R A101S = 170 nM (3 of 3 replicates)
- F27P I51K S107A = nd (0 of 3 replicates)
- F27S S35V R56W = nd (0 of 3 replicates)
- F27S A101N G103Q = 1.5 µM (3 of 3 replicates)
- F27P G103I T104S = nd (0 of 3 replicates)
- F27I R100A G103H = 1.1 µM (1 of 3 replicates)
- F27I D54M T104D = nd (0 of 3 replicates)
- F27Y I51S Y52M = 1.6 µM (1 of 3 replicates)
- F27V G33M S35E = 91 µM (1 of 3 replicates)
- F27L G55P = 260 µM (3 of 3 replicates)
- G26H F27T V50D = 150 µM (1 of 3 replicates)
- F27S Y52D G103R = 24 µM (3 of 3 replicates)

For reference, 5 entries of the list once more:

- F27N F59N G103M = 39 µM (2 of 3 replicates)
- F27V G33M S35E = 91 µM (1 of 3 replicates)
- G26H F27T V50D = 150 µM (1 of 3 replicates)
- F27L G55P = 260 µM (3 of 3 replicates)
- F27W S31K D54N = nd (0 of 3 replicates)